The record followed here is patent publication US10028961B2, “Therapeutically active compounds and their methods of use” (AGIOS PHARMACEUTICALS, INC., priority 2013, dated 2018).

Protein sequences, listed by entry. Tags and fused reporters are not part of them.
UniProt O75874, whole entry R132C: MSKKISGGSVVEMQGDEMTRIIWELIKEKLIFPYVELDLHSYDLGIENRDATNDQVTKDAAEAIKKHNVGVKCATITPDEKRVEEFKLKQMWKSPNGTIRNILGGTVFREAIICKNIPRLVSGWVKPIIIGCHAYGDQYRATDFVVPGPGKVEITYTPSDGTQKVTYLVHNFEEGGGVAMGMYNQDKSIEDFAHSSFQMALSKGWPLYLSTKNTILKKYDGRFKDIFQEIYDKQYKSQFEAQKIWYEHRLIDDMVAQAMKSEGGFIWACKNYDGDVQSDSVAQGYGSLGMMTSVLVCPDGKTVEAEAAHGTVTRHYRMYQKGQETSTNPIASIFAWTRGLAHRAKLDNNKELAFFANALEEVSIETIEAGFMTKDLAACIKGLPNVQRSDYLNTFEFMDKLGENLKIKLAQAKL
UniProt O75874, whole entry R132H: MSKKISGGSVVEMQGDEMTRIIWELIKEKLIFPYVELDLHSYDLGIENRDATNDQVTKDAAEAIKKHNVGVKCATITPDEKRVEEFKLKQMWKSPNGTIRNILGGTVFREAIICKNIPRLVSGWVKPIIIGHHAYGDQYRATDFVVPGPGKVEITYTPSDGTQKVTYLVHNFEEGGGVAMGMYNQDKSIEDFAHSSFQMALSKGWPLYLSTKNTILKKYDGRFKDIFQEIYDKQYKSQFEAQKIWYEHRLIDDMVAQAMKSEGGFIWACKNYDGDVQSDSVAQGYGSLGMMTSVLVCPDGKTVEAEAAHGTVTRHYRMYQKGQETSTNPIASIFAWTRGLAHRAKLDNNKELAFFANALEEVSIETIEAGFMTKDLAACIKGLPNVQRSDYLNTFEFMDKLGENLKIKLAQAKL
UniProt O75874, whole entry, stated change not applied: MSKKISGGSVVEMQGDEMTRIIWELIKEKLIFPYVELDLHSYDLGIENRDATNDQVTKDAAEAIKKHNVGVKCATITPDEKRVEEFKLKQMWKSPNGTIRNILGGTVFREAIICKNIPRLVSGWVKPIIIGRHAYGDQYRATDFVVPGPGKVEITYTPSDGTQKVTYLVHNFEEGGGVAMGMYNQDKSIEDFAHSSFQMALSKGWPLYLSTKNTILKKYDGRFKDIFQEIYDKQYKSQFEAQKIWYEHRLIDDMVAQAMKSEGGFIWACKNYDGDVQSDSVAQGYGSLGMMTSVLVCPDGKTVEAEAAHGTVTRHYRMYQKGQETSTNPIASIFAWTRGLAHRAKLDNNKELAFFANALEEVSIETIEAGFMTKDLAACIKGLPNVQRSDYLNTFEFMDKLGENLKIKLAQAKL

Holding throughout (format): biochemical
One experiment addresses IDH1 R132C (Homo sapiens (Human), UniProt O75874, R132C). Briefly: In vitro assay IDH1 R132C homodimer, NADPH depletion assay. How it is done:
(§1) The following describes the experimental procedures that can be used to obtain data on columns 3 and 6 of Table 4.
(§2) A test compound is prepared as 10 mM stock in DMSO and diluted to 50× final concentration in DMSO, for a 50 μl reaction mixture. IDH enzyme activity converting alpha-ketoglutarate to 2-hydroxyglutaric acid is measured using a NADPH depletion assay. In the assay the remaining cofactor is measured at the end of the reaction with the addition of a catalytic excess of diaphorase and resazurin, to generate a fluorescent signal in proportion to the amount of NADPH remaining. […] The reaction is started with the addition of 10 μl of Substrate Mix ([…], 5 mM alpha-ketoglutarate, in Assay Buffer) and the mixture is incubated for 90 minutes at room temperature.
The concentration of NADPH and alpha-ketoglutarate in the Substrate Buffer is 20 μM and 1 mM, respectively.

Experiment [1] addresses IDH1-R132C homodimer enzyme (Homo sapiens (Human), UniProt O75874, R132C). The experiment is described as follows: In vitro assay IDH1-R132C homodimer, NADPH depletion assay with NADPH/NADP preincubation. The following applies: 5 uM NADPH and 28.75 uM NADP, read-out: IDH R132C NADPH/NADP IC50. The procedure: (§3) The following describes the experimental procedures that can be used to obtain data on columns 3 and 5 of Table 5.
as §2, with “60” for “90”
The concentration of alpha-ketoglutarate in the Substrate Buffer is 1 mM.

In experiment [2] the target is IDH1-R132 homodimer enzyme (R132H) (Homo sapiens (Human), UniProt O75874, R132H). Briefly: In vitro assay IDH1-R132H homodimer, NADPH depletion assay. The procedure:
as §1, §2

Experiment [3] deals with IDH1-R132H homodimer enzyme (Homo sapiens (Human), UniProt O75874, R132H). The experiment is described as follows: In vitro assay IDH1-R132H homodimer, NADPH depletion assay with NADPH/NADP preincubation. The following applies: 5 μM NADPH and 37.5 μM NADP. The procedure:
as §3
as §2, with “60” for “90”

Experiment [4] deals with IDH1 wt/IDH1 R132H heterodimer (Homo sapiens (Human), UniProt O75874, R132H). Briefly: In vitro assay for IDH1m R132H inhibitors, IDH1 wt/IDH1 R132H heterodimer, NADPH depletion (diaphorase/resazurin). The note with it: NADPH/NADP, not saturated. The procedure: The following describes the experimental procedures that can be used to obtain data on columns 2 and 4 of Table 4 and column 2 of Table 5.
In the primary reaction, the reduction of α-KG acid to 2-HG is accompanied by a concomitant oxidation of NADPH to NADP. The amount of NADPH remaining at the end of the reaction time is measured in a secondary diaphorase/resazurin reaction in which the NADPH is consumed in a 1:1 molar ratio with the conversion of resazurin to the highly fluorescent resorufin.
The mixture of compound, enzyme, and cofactor is pre-incubated at room temperature for 1 hr prior to the addition of alpha-ketoglutarate. To perform the secondary reaction, 10 uL of 1× buffer containing 36 μg/ml diaphorase and […] resazurin is added to the primary reaction and incubated for a further 5 minutes at 25° C. […] Compounds or compound dilutions are prepared in 100% DMSO concentration and diluted 1:50 into the final reaction. […] IC50s are determined.
IDH1 or IDH2 wildtype (wt) and mutant heterodimers are expressed and purified by methods known in the art. […] Co-expression of IDH1wt-his and IDH1R132C-flag is carried out in sf9 insect cells. Cells (25 g) are resuspended in 250 ml of 50 mM Tirs, 500 mM NaCl, pH7.4, at 4° C. with stirring. […]
(Alamar Blue is a resazurin reagent that responds to reducing activity.)

For `C[C@@H](Nc1cc(N[C@H](C)C2CC2)nc(-c2cccc(C(F)(F)F)n2)n1)C1CC1` [Compound 414], the IC50 against IDH1 R132C was 0.1 to 1 µM; in experiment [1], 0.1 to 1 µM; in experiment [2], 0.1 to 1 µM; in experiment [3] it was 0.05 to 0.1 µM.
Consider `C[C@H](Nc1cc(N[C@H](C)C2CC2)nc(-c2cccc(C(F)(F)F)n2)n1)C1CC1` [Compound 415], for which the IC50 (on IDH1 R132C; in experiment [2]) was 0.1 to 1 µM in each case.
As for `C[C@H](Nc1cc(N[C@@H](C)C2CC2)nc(-c2cccc(C(F)(F)F)n2)n1)C1CC1` [Compound 416], the IC50 was less than 0.05 µM in experiment [4] and 0.1 to 1 µM in experiment [2].
In experiment [2], `CC(Nc1cc(NC(C)C2CC2)nc(-c2cccc(C(F)(F)F)n2)n1)C1CC1` (stereo not drawn) [Compound 420] returned an IC50 of 0.1 to 1 µM.
